Rango release inh – prevents RanGTP from dissociating the Rango-importin beta complex; 340,000 tested, 0.071% active; O95149+P62826; Biochemical FRET Rango-importin beta, RanGTP-induced dissociation; Potency, µM (doses to about 46.1 µM), for inactives: at the highest dose activity change, negative = inhibition; further: potency means the concentration at half of the fitted maximal effect; % of control where 0% means no effect; nearly all actives have a fitted effect of over 45% in size
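Rango (0.1 uM)–importin beta (0.25 uM) complex; RanGTP-RCC1 trigger; 45 min RT; CFP/YFP FRET read.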
Rango complex inh – inhibitors of Rango-importin beta complex formation; Q14974; Rango CFP/YFP FRET sensor + importin beta, 45 min; Potency, µM (series often up to 92.2 µM), without a hit: at the top dose inhibition of complex formation; 340,000 tested, 0.031% active;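 further: potency means the concentration at half of the fitted maximal effect; 0% = DMSO wells and 100% = buffer wells lacking importin beta; nearly all actives have a fitted effect of over 15% in size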
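FRET biosensor (snurportin 1 IBB flanked by EYFP and cerulean), 50 nM, with compound 5 min, then 0.125 microM importin beta in PBS, 1 mM DTT, 0.02% Tween-20, 0.1% BSA. CFP/YFP ratio read after 45 min at room temperature; pre-read flags interference.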
hERG WT inh – KCNH2 (human, wildtype) channel inhibition; 340,000 tested, 0.37% active; U2OS, BacMam KCNH2, thallium flux FluxOr; active compounds read low; activity change, % at 1.84 µM; AID 720551; Q12809;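 active means maximum activity change below -70%; inconclusive means maximum activity change between -70% and -50%; inactive means maximum activity change above -50%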; further: on the % scale 0 is the no-effect control and ±100 the full control effect
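U2OS cells were transduced with wild-type KCNH2 virus (2.03 x 10^8 / mL) for 4 h at room temperature, then cultured overnight at 37 C. Thallium flux was read with FluxOr dye. Rate constants were normalized to DMSO controls.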
KCNH2 3.1 block – blocks the human KCNH2 3.1 channel isoform. U2OS KCNH2 3.1, thallium flux FluxOr; active compounds read low. activity change, % (tested at about 1.8 µM). 340,000 tested, 0.95% active. AID 720553;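 active means maximum activity change below -70%; inconclusive means maximum activity change from -70% to -50%; inactive means maximum activity change above -50%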;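 further: thallium influx rate constant from kinetic fluorescence after stimulation buffer; on the % scale 0 is the no-effect control and ±100 the full control effect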
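Steps: virus added to U2OS suspension (4 h, RT, dark); medium with 10% FBS added, cells plated, 37 C overnight; FluxOr/Red40 loading buffer 45 min RT; stimulation buffer, 2 min kinetic read; rate constant normalized.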
The depositor's hits bear a star; ? = inconclusive; nt = not tested or not shown. An excerpt weighted towards active compounds, which were near 1.3% of everything screened. Unless noted, the call rests on the fitted dose curve.

SMILES	Rango release inh	Rango complex inh	hERG WT inh	KCNH2 3.1 block
O=C(c1ccc(Cl)c(S(=O)(=O)N2CCCC2)c1)N1CCCC(C(F)(F)F)C1 (centres undefined)	10.7%	-0.5%	-4.4	1.1
CSCCC(NS(=O)(=O)c1ccc(C)cc1)C(=O)NC1CCCCCC1 (centres undefined)	-8.3%	-2.2%	9.6	11.4
Cc1cc(C)nc(/N=C(\N)N(Cc2ccccc2)Cc2ccccc2)n1	7.4%	-3.0%	1.3	-76.7*
CCCCN(CCCC)/C(N)=N/c1nc(C)cc(C)n1	-0.8%	-3.2%	17.5	-10.1
Cc1cc(C)nc(/N=C(\N)Nc2ccc(-c3ccccc3)cc2)n1	-5.0%	?	31.6	-79.8*
O=C(/C=C/c1cc([N+](=O)[O-])ccc1OC(F)F)Nc1cccc(OC(F)F)c1	13.8%	0.4%	-158.3*	-3.5
CCN(CC(=O)Nc1ccc(OC)cc1)C(=O)CCS(=O)(=O)c1ccc(C)cc1	-1.7%	-0.1%	-8.4	-12.7
CCN(CC(=O)Nc1ccc(OC)cc1)C(=O)Cc1cccs1	-7.3%	0.5%	0.0	-151.5*
CCN(C(=O)CSc1nnc(-c2cccc(Cl)c2)n1N)c1c(N)n(Cc2ccccc2)c(=O)[nH]c1=O	-0.4%	3.4%	3.7	20.8
O=C(COC(=O)CC1SC(N2CCCC2)=NC1=O)Nc1c(F)c(F)c(F)c(F)c1F (centres undefined)	-8.8%	6.6%	-5.2	-74.1*
O=C(CN1CCN(Cc2ccccc2)CC1)N1CCN(c2ccccc2)CC1	-11.0%	3.5%	3.5	4.0
NC(=O)c1ccccc1NC(=O)CN1CCN(Cc2ccccc2)CC1	2.0%	-1.2%	-35.5	-76.7*
O=C(CN1CCN(Cc2ccccc2)CC1)Nc1ccccc1-c1ccccc1	6.0%	1.7%	-74.3*	-45.4
O=C(CN1CCN(Cc2ccccc2)CC1)N1CCCCCC1	7.8%	-2.6%	-1.6	-83.2*
COc1ccc(Cl)cc1C(=O)NNC(=O)CNC(=O)c1ccco1	-19.9%	-1.7%	2.6	-17.0
CN(C)CCCNC(=O)C[C@H]1C[C@H](C(=O)N2CCCCC2)[C@@]2(CCc3ccccc3)c3[nH]c4ccc(Cl)cc4c3CCN2C1=O	-3.2%	-1.1%	-119.8*	-47.1
COc1ccccc1Nc1ccc2nonc2c1[N+](=O)[O-]	-1.4%	-0.4%	-2.0	9.6
O=C(C[n+]1cc(Br)cc(Br)c1)c1cccc([N+](=O)[O-])c1	0.3%	-0.6%	-9.5	-79.9*
COc1ccc(NC(=O)C2CCN(C(=O)[C@@H]3Cc4ccccc4CN3)CC2)cc1	-22.8%	3.4%	15.7	-113.7*
COc1cc(/C=C2/NC(=O)N(Cc3ccccc3F)C2=O)ccc1O	-27.0%	?	-5.4	-104.2*
CC(NCc1cccnc1)c1ccccc1 (centres undefined)	-5.4%	-0.8%	3.2	22.9
COc1ccc([C@H]2C[C@H](n3cc(C4CC4)nn3)[C@@H](O)CN2CC2CCCCC2)cc1	nt	nt	1.4	-84.3*
COc1ccc(C(=S)N2CCOCC2)cc1OC(=O)c1cc(OC)c(OC)c(OC)c1	3.1%	-0.3%	2.4	-79.0*
COC(=O)c1ccc(CNC(=O)c2ccc(OCC(=O)N3CCOCC3)c(OC)c2)cc1	2.1%	1.6%	-152.5*	-193.2*
CN1CCc2c1nc1ccccc1c2NC(=O)CN1CCCC1	-0.3%	6.1%	10.6	7.7
CCCCCCC(=O)Nc1c2c(nc3ccccc13)N(C)CC2	-10.2%	5.4%	-101.3*	-95.5*
CC1=CC(C)(C)N(C(=O)CSc2ncn[nH]2)c2ccccc21	-0.9%	3.3%	-9.2	-78.3*
CCCOc1ccc(C=Nc2ccc(OC)c(S(=O)(=O)N3CCOCC3)c2)c(O)c1	1.3%	0.4%	-3.3	18.2
COc1ccc(CNC(=O)C(=O)NCC2OCCN2S(=O)(=O)c2ccccc2)cc1 (centres undefined)	-2.6%	-0.2%	-2.6	-16.2
COCC(C)NCc1ccccc1C (centres undefined)	20.9%	18.4µM*	-4.4	4.4
COCC(C)NCc1cccc(OC)c1OC (centres undefined)	-9.6%	-1.2%	-5.7	5.7
N#Cc1cccc(Oc2ccc(S(=O)(=O)N3CCCC3)cn2)c1	21.6%	?	-88.7*	?
CC(=O)Nc1ccc(Oc2ccc(S(=O)(=O)N3CCCC3)cn2)cc1	10.3%	2.1%	-13.9	14.0
COC(=O)c1cccc(N(CC(=O)NC2CCCC2)C(=O)CCC(=O)Nc2cc(C)on2)c1	17.3%	-2.9%	9.1	-11.5

Ordered by count of non-hydrogen atoms (lowest first): part of the list above
SMILES	Rango release inh	Rango complex inh	hERG WT inh	KCNH2 3.1 block
CC(NCc1cccnc1)c1ccccc1 (centres undefined)	-5.4%	-0.8%	3.2	22.9
COc1cc(/C=C2/NC(=O)N(Cc3ccccc3F)C2=O)ccc1O	-27.0%	?	-5.4	-104.2*
COc1ccc([C@H]2C[C@H](n3cc(C4CC4)nn3)[C@@H](O)CN2CC2CCCCC2)cc1	nt	nt	1.4	-84.3*

Ordered by the number under Rango complex inh (falling): some entries from above.
| SMILES | Rango complex inh |
| --- | --- |
| CN1CCc2c1nc1ccccc1c2NC(=O)CN1CCCC1 | 6.1% |
| CCCCCCC(=O)Nc1c2c(nc3ccccc13)N(C)CC2 | 5.4% |
| CC(=O)Nc1ccc(Oc2ccc(S(=O)(=O)N3CCCC3)cn2)cc1 | 2.1% |
| CCCOc1ccc(C=Nc2ccc(OC)c(S(=O)(=O)N3CCOCC3)c2)c(O)c1 | 0.4% |
| COC(=O)c1cccc(N(CC(=O)NC2CCCC2)C(=O)CCC(=O)Nc2cc(C)on2)c1 | -2.9% |

Screening results deposited in PubChem by National Center for Advancing Translational Sciences (NCATS).
